B1: LC11 (antibody, V domains shown)
VL: DIQMTQSPSSLSASVGDRVTITCRASQSVSSAVAWYQQKPGKAPKLLIYSASSLYSGVPSRFSGSGSGTDFTLTISSLQPEDFATYYCQQYYPLTFGQGTKVEIK
VH: EISEVQLVESGGGLVQPGGSLRLSCAASGFNLSYSYIHWVRQAPGKGLEWVASIYSSYGSTYYADSVKGRFTISADTSKNTAYLQMNSLRAEDTAVYYCARSYHHSDKYYYAWSYALDYWGQGTLVTVSS
B2: LC10 (antibody, V domains shown)
VL: DIQMTQSPSSLSASVGDRVTITCRASQSVSSAVAWYQQKPGKAPKLLIWWASSLYSGVPSRFSGSGSGTDFTLTISSLQPEDFATYYCQQYSYSPFTFGQGTKVEIK
VH: EISEVQLVESGGGLVQPGGSLRLSCAASGFNFYYSSIHWVRQAPGKGLEWVASISPYSGYTSYADSVKGRFTISADTSKNTAYLQMNSLRAEDTAVYYCARQPTHYYYYAKGYKAMDYWGQGTLVTVSS

Chains of the proteins cited; added tags and fusions are not shown. Residues count along the entry.
UniProt P56817, 22-457: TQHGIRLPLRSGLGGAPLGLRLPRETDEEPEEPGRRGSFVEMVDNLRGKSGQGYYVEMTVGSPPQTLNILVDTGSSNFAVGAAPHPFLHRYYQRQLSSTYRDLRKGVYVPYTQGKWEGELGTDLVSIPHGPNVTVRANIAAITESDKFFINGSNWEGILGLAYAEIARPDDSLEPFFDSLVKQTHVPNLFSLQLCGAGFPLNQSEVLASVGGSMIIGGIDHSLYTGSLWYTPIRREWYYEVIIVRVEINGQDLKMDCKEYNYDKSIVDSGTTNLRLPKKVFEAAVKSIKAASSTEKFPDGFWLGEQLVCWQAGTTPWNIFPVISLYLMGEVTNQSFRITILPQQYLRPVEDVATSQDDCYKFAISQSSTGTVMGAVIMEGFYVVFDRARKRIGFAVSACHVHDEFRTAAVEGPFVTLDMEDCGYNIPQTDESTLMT

Molecular target: BACE1 (Homo sapiens, UniProt P56817)
Experiment: HTRF BACE1 enzyme activity assay (long peptide Bi27)
Assay type: biochemical
Description: The HTRF assay was performed as follows. […] The proteolytic reaction mixture was incubated at ambient temperature for 75 minutes and was quenched by the addition of 5 μL HTRF detection mixture containing 2 nM Streptavidin-D2 and 150 nM of 6E10 anti-amyloid beta antibody (Covance, Emoryville, Calif.) labeled with Europium cryptate in detection buffer (200 mM Tris pH 8.0, 20 mM EDTA, 0.1% BSA, and 0.8M KF). The final reaction mixture was incubated at ambient temperature for 60 minutes and the TR-FRET signal was measured using an EnVision Multilabel Plate Reader™ (Perkin-Elmer) at an excitation wavelength of 320 nm and emission wavelengths of 615 and 665 nm. Reactions lacking BACE1 enzyme (0 BACE) and reactions containing lacking anti-BACE1 antibodies (PBS (100% BACE1 Activity) were used as controls.
Fab proteins of 6 clones were purified and subjected for HTRF enzyme activity assay, as described above.
The affinity matured YW412.8.31 anti-BACE1 antibody was tested in a HTRF assay as described in Example 1. […] The resulting fluorogenic products from the control reactions were measured as above, but at an excitation wavelength of 545 nm and an emission wavelength of 585 nm. Obtained data were analyzed using GraphPad Prism 5™ (LaJolla, Calif.).

Molecule | inhibition activity compared to parent Fab (purified affinity matured Fabs) | improvement in inhibition activity (affinity improved derivatives of Fab 12)
B1 | lost inhibition activity | 
B2 |  | approximately 20 fold

Source: patent US9879094B2, “Nucleic acid molecules encoding for BACE1 antibodies” (Genentech, Inc., priority 2010, dated 2018)
